Measured affinities in a library of Ab-14 light chain variants

Binding partner: SARS-CoV-2 spike HR2 peptide, sequence PDVDLGDISGINAS.

Parent scFv Ab-14: VH joined to VL by a 15-residue (Gly4Ser)3 linker. Changes lie in the light chain CDRs alone.
VH: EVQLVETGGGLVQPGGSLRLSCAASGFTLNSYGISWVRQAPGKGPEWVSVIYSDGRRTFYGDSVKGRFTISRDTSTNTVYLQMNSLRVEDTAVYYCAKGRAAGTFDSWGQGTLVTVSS
VL: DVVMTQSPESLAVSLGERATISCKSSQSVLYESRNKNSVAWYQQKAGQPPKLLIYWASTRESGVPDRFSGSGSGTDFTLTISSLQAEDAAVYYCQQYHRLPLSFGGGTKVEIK

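These sequences belong to a second round, designed from the earlier measurements on random variants of the parent. Group labels follow the data file (Ctrl: baseline library sampled from a position-specific scoring matrix, with some repeated check sequences; En: ensemble of fine-tuned language models; GP: Gaussian process model; HC: hill climbing; Gen: genetic algorithm; Gibbs: Gibbs sampling; a sequence that several methods proposed may carry one label only). AlphaSeq pools MATa yeast showing the antibodies with MATalpha yeast showing the peptide. The frequency of each diploid, read from paired DNA barcodes, reflects how well the two displayed proteins bind. Read counts were normalised to the haploid input and turned into Kd by a linear fit to BCL2-family pairs of known affinity, for each replicate. Each pool was mated in six replicate cultures.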

Each variant is given by its three light chain CDRs, as the data file delimits them; those of the parent are KSSQSVLYESRNKNSVA, WASTRES, QQYHRLPLS. The Kd shown is the geometric mean over detected replicates; a lower Kd is a better binder. An entry "nd" has no value in the source: the pair was not observed among the diploids in any replicate. This suggests poor binding but is not conclusive. The parent sequence was in this pool as ten entries: three were never detected, three once, and four in most replicates, with averages from 2.2 nM to 240 nM.

Kd,seen in,signal with controls,CDR-L1,CDR-L2,CDR-L3,group
12 nM,6 of 6,0 of 18,KVSEMMAFLSSNRNSVA,DNSTRGS,QQYHRLPLS,En_HC
14 nM,3 of 6,0 of 18,KMSGNLTDQENIKHSIA,EQVLAME,QQYMKLPLD,En_Gibbs
600 pM,6 of 6,1 of 18,KLSQSVLYQSRNKNNVA,NASTRES,QQYHRLPLS,GP_Gen
6.3 nM,6 of 6,0 of 18,KLQQLGLYEQRNLNSVA,SASTRCS,QQYHRLPLS,GP_Gibbs
24 nM,6 of 6,0 of 18,KLYERGEISSKVDRSIA,EMSTRQE,QSYQRLPLS,En_Gibbs
6.0 nM,6 of 6,0 of 18,KLNDAYQGDIVNNQNIA,SADMLNH,QQYAKLPLS,En_Gibbs
1.6 nM,6 of 6,2 of 18,KFVQSWGYESRNKNAVA,HASQRCD,QQYHRLPLS,GP_Gibbs
35 nM,6 of 6,0 of 18,HTQHLGFDDPKHWNSIA,EVSQVCS,QQYMRLPLT,En_Gibbs
44 nM,2 of 6,0 of 18,GSGQSVLMESRNHNSVA,KASTRES,QQYLRLPLS,Ctrl
140 nM,6 of 6,1 of 18,KSSQMVLYESNNKNSVA,WASTRES,QQYHRLPLS,Ctrl
580 pM,6 of 6,0 of 18,KLSQSVLYLSRNKNSVA,NASTRES,QQYHRLPLS,GP_Gen
180 nM,2 of 6,0 of 18,IVSQLMLWGYKAKNSIA,EAETRGN,QQYDRLPLF,En_Gen
1.3 nM,6 of 6,0 of 18,KLQQSQLYESRNKNSVA,EASTRES,QQYHRLPLS,GP_Gen
15 nM,6 of 6,2 of 18,KWSQSVLYESRNKNSVA,WASTRES,QQYQRLPLS,Ctrl
18 nM,6 of 6,1 of 18,MISQLFMYGSRNRNSIA,QASTREK,QQYDRLPLI,En_HC
3.1 nM,6 of 6,1 of 18,MISNVMNTLTREGNNVA,DLAEREK,QQYFRLPLS,En_Gen
2.8 nM,6 of 6,1 of 18,KVSPSVLYESRNKNSVA,EASTRES,QQYHRLPLS,GP_Gen
1.3 nM,6 of 6,0 of 18,KLPMKELQMSENTNNVA,DSEQKMK,QQYSRLPLM,En_Gibbs
1.1 nM,6 of 6,1 of 18,KMLQSVLYESRNKNSVA,HASTRED,QQYHRLPLS,GP_HC
860 pM,6 of 6,0 of 18,KVSQSELYESRNKNSVA,NASTREE,QQYHRLPLS,GP_Gen
450 pM,6 of 6,1 of 18,KLSQSVLYEDRNKNSVA,NASTRES,QQYHRLPLS,GP_Gen
41 nM,1 of 6,0 of 18,KSSQSVLYESRNKNSVA,SASERES,PQYHRLPLS,Ctrl
1.0 nM,6 of 6,3 of 18,KVSQSVLYEQRNKNSVA,EASTRCS,QQYHRLPLS,GP_Gen
4.4 nM,6 of 6,0 of 18,KIRVQQYMQSEMESNIA,GTSVRHS,QQYFHLPLT,En_Gibbs
1.8 nM,6 of 6,2 of 18,KMSQSMWYESRQSNSVA,NASNRLS,QQYHRLPLS,GP_Gibbs
630 pM,6 of 6,0 of 18,KMSQSVLYEWRNKNSVA,DASTRES,QQYHRLPLS,GP_HC
380 pM,6 of 6,1 of 18,KFEQSWLYESRNKNSVA,NASTRES,QQYHRLPLS,GP_Gen
7.5 nM,6 of 6,0 of 18,KISQMVRVGSTVKNSIA,EMVTRAN,QQYHRLPLA,En_Gen
1.1 nM,6 of 6,0 of 18,KLSQSHLYESRNKNSVA,NASTREQ,QQYHRLPLS,GP_Gen
14 nM,6 of 6,2 of 18,KLQFGNLYESRNKNSVA,KASTRLQ,QQYHRLPLS,GP_Gibbs
880 pM,6 of 6,2 of 18,KLSQSVLYEQRNKNSVA,NASTRLS,QQYHRLPLS,GP_Gen
700 pM,6 of 6,2 of 18,ILQQSMLYESRWKNSVA,DASVRED,QQYHRLPLS,GP_Gibbs
170 nM,3 of 6,0 of 18,KSSQSVLYESRNKGSVA,NASTRES,QQYHYLPLS,Ctrl
67 nM,5 of 6,2 of 18,KLVGVSDSDMNPSHNIA,DVSMVDN,QQYHRLPLD,En_Gibbs
9.9 nM,6 of 6,0 of 18,KQSQSFLYESRNSNSVA,DASQREQ,QDYHRLPLM,GP_Gibbs
2.3 nM,6 of 6,1 of 18,NIDQLRSYQDGRERAIA,DASIRQD,QYYNRLPLV,En_Gibbs
nd,0 of 6,0 of 18,KSSQSVLYESRNKNSVA,FASTRES,QQYSRLPLS,Ctrl
4.1 nM,6 of 6,1 of 18,KSTQSVLYESRNKNSIA,SASTRES,QQYHRLPLS,Ctrl
1.1 nM,6 of 6,1 of 18,KLSQSVLYESRNKNSVA,NASTREE,QQYHRLPLM,GP_Gen
1.7 nM,6 of 6,2 of 18,QLTENDRGHQAGGGSIA,DATETME,QQYMHLPLY,En_Gibbs
240 nM,5 of 6,1 of 18,QMTGQLFEQGNRSEPIA,HESMKET,QQYFQLPLT,En_Gibbs
4.7 nM,6 of 6,0 of 18,HITYGMMVAGRHSKSIA,QAEERAK,QQYDRLPLA,En_Gen
3.1 nM,6 of 6,0 of 18,ASSQSVLYESRNKNSVA,GATTRES,QQYHRLPLS,Ctrl
3.6 nM,6 of 6,2 of 18,KSLQGVLYESRDKNSVA,HASTRED,QQYHRLPLS,GP_HC
7.9 nM,6 of 6,1 of 18,HITYGMQVMGRHSKSIA,QAEERAK,QQYDRLPLA,En_Gen
5.8 nM,6 of 6,1 of 18,RVRNEMGKEMERGQSVA,ETEQRCM,QQYARLPLI,En_Gibbs
1.2 nM,6 of 6,0 of 18,IMSEGQERDASRLNNIA,DHYTRAT,QQYARLPLS,En_Gibbs
9.6 nM,6 of 6,0 of 18,RVQLNSGHIDMHWYNIA,SASIRAD,QQYFRLPLF,En_Gibbs
1.0 nM,6 of 6,0 of 18,ASSPSVMGEERNSNSVA,AASTREV,QQYHRLPLS,GP_Gibbs
20 nM,5 of 6,1 of 18,MLSEFMHMLGAKKNSIA,DLVVRAN,QQYHRLPLE,En_Gen
2.0 nM,6 of 6,0 of 18,TLTQVGGYEMNAHNSIA,DLRTREN,QQYHRLPLS,En_HC

The authors' rule: three or more of the six replicates give a measured affinity, fewer mean a poor binder. Three control strains display no target. For all light chain designs, 4% of the pairings with them gave a signal, with a median of 430 nM and one signal in twenty below 38 nM, so weak values seen in few replicates may be background. Also given: how often the same scFv was detected with the empty control strains. Values of this round are not directly comparable with the first-round values of the same sequences.

From the AlphaSeq antibody data of Li et al. 2023 (doi:10.1038/s41467-023-39022-2), copy in the FLAb collection.